# scFv variants of Ab-95 (light chain) against a SARS-CoV-2 spike peptide

Values reported by Engelhart et al. 2022, doi:10.1038/s41597-022-01779-4 (FLAb copy).

The target is the same throughout: PDVDLGDISGINAS, from the HR2 region of SARS-CoV-2 spike.

The variants keep the heavy chain, the linker and the frameworks of Ab-95 (scFv order VH, three GGGGS repeats, VL).
VH: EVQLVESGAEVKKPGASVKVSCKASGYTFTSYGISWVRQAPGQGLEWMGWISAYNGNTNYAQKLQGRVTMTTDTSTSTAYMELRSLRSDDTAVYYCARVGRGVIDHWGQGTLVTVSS
VL: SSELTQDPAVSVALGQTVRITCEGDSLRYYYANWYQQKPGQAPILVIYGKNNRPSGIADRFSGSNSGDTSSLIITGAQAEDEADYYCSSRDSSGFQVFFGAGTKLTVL

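Phage display of a naive human antibody library on the peptide gave the parent. Variants in AAYL52 differ from the parent at up to three CDR positions; double and triple changes were sampled at random. AlphaSeq pools MATa yeast showing the antibodies with MATalpha yeast showing the peptide. Mating (16 h, 30 °C) was followed by selection of diploids and sequencing of their barcodes. Each replicate has its own calibration line, from reference interactions of the BCL2 family. Each pool was mated in three replicate cultures.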

Each variant is given by its three light chain CDRs, as the data file delimits them; those of the parent are EGDSLRYYYAN, GKNNRPS, SSRDSSGFQVF. Every variant below is changed at Y31 of the VL (sequential numbering). Values are apparent Kd, the geometric mean of the replicates that gave a signal; lower means stronger binding. Where no diploid with the target was found in any replicate, the entry reads "no signal": below detection, most likely a poor binder, though not proof of it.

The variant EGDSLTYYFAN / GMNNRPS / SSRDSSGFQVF gave 2.9 µM (3 of 3 replicates; controls 2 of 9). The variant EGDSLRYYNYN / GKNNKPS / SSRDSSGFQVF gave 2.4 µM (3 of 3 replicates; controls 2 of 9). With EGDSLRYYVAN / GKNPRPS / SSRDYSGFQVF the result was 17 µM (2 of 3 replicates; controls 5 of 9). The variant EGDLLRYYDAN / GKNNRPS / SSQDSSGFQVF gave 1.8 µM (3 of 3 replicates; controls 5 of 9). The variant EGDCLRYYPYN / GKNNRPS / SSRDSSGFQVF gave 3.7 µM (3 of 3 replicates; controls 2 of 9). With EGDSLRYYLAN / GKNNRPY / SSRDHSGFQVF the result was 1.0 µM (3 of 3 replicates; controls 2 of 9). The variant EGCSLRYYDAN / GKNNRPS / SSRRSSGFQVF gave 12 µM (3 of 3 replicates; controls 2 of 9). With EGDSLRYYSAN / GENNRPS / SSTDSSGFQVF the result was no signal (0 of 3 replicates; controls 0 of 9). For EGDSLSLYHAN / GKNNRPS / SSRDSSGFQVF, the assay gave 120 nM (3 of 3 replicates; controls 0 of 9).

The variant EWDSLRYYVAN / GKNNRPS / SSRDMSGFQVF showed 53 nM (3 of 3 replicates; controls 5 of 9). The variant EGDSLRYYNQN / GKNNRPS / SARDSSGFQVF gave 490 nM (3 of 3 replicates; controls 4 of 9). The variant EGDSLRYYCAM / GKANRPS / SSRDSSGFQVF gave 6.8 µM (2 of 3 replicates; controls 1 of 9). For EGDSLRYYHAN / GRNNRPS / SSRDSSGFQVF, the assay gave 110 nM (3 of 3 replicates; controls 3 of 9). The variant ETDSLDYYFAN / GKNNRPS / SSRDSSGFQVF gave no signal (0 of 3 replicates; controls 2 of 9). The variant EGDSLREYNAN / GKNNRPS / SSRDSSNFQVF showed 85 nM (3 of 3 replicates; controls 2 of 9). With EGDSLRYYVAN / GKSNRPS / LSRDSSGFQVF the result was 9.3 µM (1 of 3 replicates; controls 4 of 9). For EGDSLRYYTAN / GKNNRPS / SSNDSSGFQSF, the assay gave 38 µM (1 of 3 replicates; controls 3 of 9). For EGDSLRYYCAN / GKNNRPS / SSRDHSGFLVF, the assay gave 200 nM (3 of 3 replicates; controls 1 of 9).

The variant EGVSLRYYEAN / GHNNRPS / SSRDSSGFQVF gave 11 nM (3 of 3 replicates; controls 6 of 9). With EGDSLRYYWAN / GKNNRPS / SSRDSSGTWVF the result was 2.4 µM (3 of 3 replicates; controls 7 of 9). With EGDSLRYTDAN / GKNNRPS / SSRDSSRFQVF the result was 95 nM (3 of 3 replicates; controls 5 of 9). The variant EGDSLRYTMAN / GKNNRPS / ISRDSSGFQVF showed 11 nM (3 of 3 replicates; controls 1 of 9). The variant EGDSLRYYTAN / GKNNRPS / SSDDSSGFQVF showed 130 nM (3 of 3 replicates; controls 0 of 9). The variant EGDSLRYYGAN / GKNNRPS / SSRDSSGFPVF showed 150 nM (3 of 3 replicates; controls 4 of 9). The variant EGDSLRYYVAN / GKNNRPP / DSRDSSGFQVF gave 88 µM (2 of 3 replicates; controls 5 of 9). The variant EGDSLRYYEAH / GKQNRPS / SSRDSSGFQVF showed 20 µM (2 of 3 replicates; controls 2 of 9). With EGDSLRYEWAN / GKNNRPS / SSRLSSGFQVF the result was 180 nM (3 of 3 replicates; controls 3 of 9).

With EGDSLRYYGAN / KKNNRPS / SSRDSSGFQVF the result was 1.9 µM (3 of 3 replicates; controls 2 of 9). For EGDSLRYYEAN / GMNNRPS / SSRDSSGFQVF, the assay gave 12 nM (3 of 3 replicates; controls 8 of 9). For EGDSLRYYWAN / GKNNRPS / SSWASSGFQVF, the assay gave 8.5 µM (3 of 3 replicates; controls 2 of 9). For EWDSLRYYFAN / GKNNRPS / SSNDSSGFQVF, the assay gave no signal (0 of 3 replicates; controls 1 of 9). With EIDSLRYYDAN / GKNNRPS / SSRDSSGFQVF the result was 190 nM (3 of 3 replicates; controls 5 of 9). With EGDSKRYYVAN / GKNNRPS / SSRDSGGFQVF the result was 4.1 µM (2 of 3 replicates; controls 1 of 9). For EDDSLRYYEAN / GKNNRPS / SSRDSTGFQVF, the assay gave 41 nM (3 of 3 replicates; controls 2 of 9). For EGDSHRYYIAN / AKNNRPS / SSRDSSGFQVF, the assay gave 680 nM (1 of 3 replicates; controls 3 of 9). With EGDSLRYYVAN / GKNNRPS / SSNDSSGFQVF the result was 970 nM (3 of 3 replicates; controls 3 of 9).

With EGDSLRYYKAL / GKNNRPS / SSRDSSGFWVF the result was 29 µM (1 of 3 replicates; controls 7 of 9). The variant EGDSLRYYTAN / GKNNRPS / SYRDSSGFQVE showed 170 nM (3 of 3 replicates; controls 5 of 9). The variant EGDSLRYYSAN / GKNNRPS / SSRYSSAFQVF showed no signal (0 of 3 replicates; controls 2 of 9). The variant EGDSLRYYLAN / GKNNRPS / SSRDSSGFQEF showed 15 µM (1 of 3 replicates; controls 1 of 9). With EGDSLRYLAAN / GKNNRPS / SSRDSSGFQTF the result was 1.6 µM (1 of 3 replicates; controls 3 of 9). For EGDSLTYYGAN / GKNNRPC / SSRDSSGFQVF, the assay gave 150 nM (3 of 3 replicates; controls 4 of 9). The variant EGDSLRYRKAN / GKNNRPS / SSRRSSGFQVF gave 650 nM (3 of 3 replicates; controls 0 of 9). The variant EGDQLRYYQAN / GKNNRPS / SSRDSSGFVVF showed 830 nM (3 of 3 replicates; controls 4 of 9). For EGDSLRYYKAN / TKNNRNS / SSRDSSGFQVF, the assay gave 110 nM (3 of 3 replicates; controls 2 of 9).

For EGDSLRYYDAN / GKANLPS / SSRDSSGFQVF, the assay gave 110 nM (3 of 3 replicates; controls 5 of 9). For EGDSLRYYKAN / GKNNRPS / VSRDSSPFQVF, the assay gave 4.8 µM (1 of 3 replicates; controls 2 of 9). With EGDSLRYYQAN / GKNFRPS / SWRDSSGFQVF the result was 560 nM (3 of 3 replicates; controls 2 of 9).

Top 8 of the variants detected in all replicates, tightest first:

For EGVSLRYYEAN / GHNNRPS / SSRDSSGFQVF, the assay gave 11 nM (3 of 3 replicates; controls 6 of 9).
For EGDSLRYTMAN / GKNNRPS / ISRDSSGFQVF, the assay gave 11 nM (3 of 3 replicates; controls 1 of 9).
For EGDSLRYYEAN / GMNNRPS / SSRDSSGFQVF, the assay gave 12 nM (3 of 3 replicates; controls 8 of 9).
For EDDSLRYYEAN / GKNNRPS / SSRDSTGFQVF, the assay gave 41 nM (3 of 3 replicates; controls 2 of 9).
For EWDSLRYYVAN / GKNNRPS / SSRDMSGFQVF, the assay gave 53 nM (3 of 3 replicates; controls 5 of 9).
For EGDSLREYNAN / GKNNRPS / SSRDSSNFQVF, the assay gave 85 nM (3 of 3 replicates; controls 2 of 9).
For EGDSLRYTDAN / GKNNRPS / SSRDSSRFQVF, the assay gave 95 nM (3 of 3 replicates; controls 5 of 9).
For EGDSLRYYKAN / TKNNRNS / SSRDSSGFQVF, the assay gave 110 nM (3 of 3 replicates; controls 2 of 9).

Parent in this assay: reference entry 200 nM, copy in this library 180 nM. Three control strains display no target. For library AAYL52, 28% of the pairings with them gave a signal, with a median of 8.2 µM and one signal in twenty below 800 nM, so weak values seen in few replicates may be background. The control count says in how many pairings with the empty strains this scFv gave a signal.